Experimental data as given in PMC5717261.

The chains behind the UniProt entries cited, without tags or fusion partners. A line that says so, or that is headed by a name, gives the form on record, which may keep a tag or linker. Residues count along the entry.
UniProt P13497, other isoform, or with tags, fused parts or gaps: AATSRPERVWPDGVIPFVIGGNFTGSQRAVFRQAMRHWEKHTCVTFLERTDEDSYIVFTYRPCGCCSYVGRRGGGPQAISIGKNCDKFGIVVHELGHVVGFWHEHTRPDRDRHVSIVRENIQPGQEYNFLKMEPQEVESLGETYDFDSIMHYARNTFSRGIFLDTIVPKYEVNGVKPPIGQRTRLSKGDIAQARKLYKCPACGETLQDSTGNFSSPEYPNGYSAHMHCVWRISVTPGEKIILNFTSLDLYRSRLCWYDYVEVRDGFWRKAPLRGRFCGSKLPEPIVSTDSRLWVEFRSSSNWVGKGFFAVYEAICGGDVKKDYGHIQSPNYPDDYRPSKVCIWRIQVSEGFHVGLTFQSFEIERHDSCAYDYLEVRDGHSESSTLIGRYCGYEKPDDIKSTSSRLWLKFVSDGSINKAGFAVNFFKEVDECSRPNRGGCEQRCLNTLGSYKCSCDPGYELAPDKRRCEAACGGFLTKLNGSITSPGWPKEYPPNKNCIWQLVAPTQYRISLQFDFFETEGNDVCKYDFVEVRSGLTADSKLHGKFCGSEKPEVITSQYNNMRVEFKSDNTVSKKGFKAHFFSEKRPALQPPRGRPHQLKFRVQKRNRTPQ
UniProt O43897, 148-1013: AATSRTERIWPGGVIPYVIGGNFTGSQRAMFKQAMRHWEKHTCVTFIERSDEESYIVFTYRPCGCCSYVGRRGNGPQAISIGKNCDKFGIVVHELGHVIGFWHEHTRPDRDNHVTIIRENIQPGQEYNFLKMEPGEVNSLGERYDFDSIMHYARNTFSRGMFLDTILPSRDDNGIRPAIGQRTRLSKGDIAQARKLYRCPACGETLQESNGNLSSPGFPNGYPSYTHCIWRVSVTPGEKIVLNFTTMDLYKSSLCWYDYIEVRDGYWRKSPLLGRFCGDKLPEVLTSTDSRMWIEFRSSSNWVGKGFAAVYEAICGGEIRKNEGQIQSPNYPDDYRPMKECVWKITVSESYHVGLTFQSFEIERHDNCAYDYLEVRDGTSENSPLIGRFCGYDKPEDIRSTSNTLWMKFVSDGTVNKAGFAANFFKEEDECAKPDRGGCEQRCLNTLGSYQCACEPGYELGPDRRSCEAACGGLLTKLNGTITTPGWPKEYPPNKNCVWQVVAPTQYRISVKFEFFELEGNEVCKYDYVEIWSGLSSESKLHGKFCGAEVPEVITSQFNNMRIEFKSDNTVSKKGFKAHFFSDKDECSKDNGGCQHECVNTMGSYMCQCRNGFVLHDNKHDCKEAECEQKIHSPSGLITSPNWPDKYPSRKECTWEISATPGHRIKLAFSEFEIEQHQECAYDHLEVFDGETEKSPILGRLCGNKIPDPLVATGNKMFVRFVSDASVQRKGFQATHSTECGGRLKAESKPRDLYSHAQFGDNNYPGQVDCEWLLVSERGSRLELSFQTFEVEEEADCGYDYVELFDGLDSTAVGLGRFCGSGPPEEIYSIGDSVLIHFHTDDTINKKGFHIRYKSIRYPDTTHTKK

Tests used:
[1] = molecular target: Recombinant human bone morphogenetic protein-1 (BMP-1) with a C-terminal FLAG tag (human) (UniProt P13497); test: SPR; BIAcore 3000, 25 °C; BMP-1, mTLL-1 or MASP-2 immobilised by amine coupling on CM5; C1q or MBL injected (60 µl, 20 µl/min) at several concentrations in 50 mM triethanolamine-HCl, 145 mM NaCl, 2 mM CaCl2, 0.005% surfactant P20, pH 7.4; global fit to a 1:1 Langmuir model; apparent KD from kd/ka
[2] = molecular target: Recombinant human mammalian tolloid-like-1 (mTLL-1) with a C-terminal 6x-His tag (human) (UniProt O43897); test: as above

C1q (from UniProt P02745 23-245; P02746 28-253; P02747 29-245) (complex)
Kd [1]: 0.48 nM | koff [1]: 0.00021 s⁻¹ | kon [1]: 440000 M⁻¹ s⁻¹ | Kd [2]: 0.89 nM | koff [2]: 0.0003 s⁻¹ | kon [2]: 360000 M⁻¹ s⁻¹
